From US11597701B2, “Integrin ligands and uses thereof” (Arrowhead Pharmaceuticals, Inc., priority 2017, dated 2023)
Where two headings read alike, the source gives them in different places.

Protein sequences, listed by entry. Tags and fused reporters are not part of them. Residues count along the entry.
UniProt P06756, 31-1048 limits assumed: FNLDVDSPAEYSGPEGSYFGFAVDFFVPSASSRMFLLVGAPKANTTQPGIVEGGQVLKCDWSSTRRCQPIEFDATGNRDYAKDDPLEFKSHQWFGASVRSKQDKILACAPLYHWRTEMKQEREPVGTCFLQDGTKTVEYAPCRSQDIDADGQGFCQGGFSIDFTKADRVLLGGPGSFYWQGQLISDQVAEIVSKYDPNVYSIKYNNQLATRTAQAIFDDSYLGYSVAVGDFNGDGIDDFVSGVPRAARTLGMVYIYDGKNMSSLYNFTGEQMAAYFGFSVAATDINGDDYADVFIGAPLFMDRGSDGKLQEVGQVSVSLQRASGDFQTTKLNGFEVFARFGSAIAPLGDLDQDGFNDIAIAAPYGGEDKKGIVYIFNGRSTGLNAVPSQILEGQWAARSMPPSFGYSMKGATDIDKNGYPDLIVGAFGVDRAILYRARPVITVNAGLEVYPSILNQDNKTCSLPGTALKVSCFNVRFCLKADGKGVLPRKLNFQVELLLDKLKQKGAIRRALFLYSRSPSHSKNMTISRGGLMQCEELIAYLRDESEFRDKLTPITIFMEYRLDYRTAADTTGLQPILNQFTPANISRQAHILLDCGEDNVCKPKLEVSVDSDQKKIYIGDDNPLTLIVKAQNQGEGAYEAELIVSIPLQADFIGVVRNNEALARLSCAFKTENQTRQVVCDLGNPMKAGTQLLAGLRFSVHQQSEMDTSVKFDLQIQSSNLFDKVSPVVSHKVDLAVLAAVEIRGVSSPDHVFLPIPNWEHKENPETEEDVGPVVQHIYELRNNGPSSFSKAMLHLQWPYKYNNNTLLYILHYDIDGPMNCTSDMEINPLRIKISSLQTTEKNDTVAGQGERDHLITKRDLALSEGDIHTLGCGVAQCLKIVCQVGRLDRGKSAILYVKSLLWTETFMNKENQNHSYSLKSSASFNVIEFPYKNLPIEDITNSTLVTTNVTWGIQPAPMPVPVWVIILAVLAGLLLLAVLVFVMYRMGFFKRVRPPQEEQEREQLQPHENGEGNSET
UniProt P18564, 22-788 limits assumed: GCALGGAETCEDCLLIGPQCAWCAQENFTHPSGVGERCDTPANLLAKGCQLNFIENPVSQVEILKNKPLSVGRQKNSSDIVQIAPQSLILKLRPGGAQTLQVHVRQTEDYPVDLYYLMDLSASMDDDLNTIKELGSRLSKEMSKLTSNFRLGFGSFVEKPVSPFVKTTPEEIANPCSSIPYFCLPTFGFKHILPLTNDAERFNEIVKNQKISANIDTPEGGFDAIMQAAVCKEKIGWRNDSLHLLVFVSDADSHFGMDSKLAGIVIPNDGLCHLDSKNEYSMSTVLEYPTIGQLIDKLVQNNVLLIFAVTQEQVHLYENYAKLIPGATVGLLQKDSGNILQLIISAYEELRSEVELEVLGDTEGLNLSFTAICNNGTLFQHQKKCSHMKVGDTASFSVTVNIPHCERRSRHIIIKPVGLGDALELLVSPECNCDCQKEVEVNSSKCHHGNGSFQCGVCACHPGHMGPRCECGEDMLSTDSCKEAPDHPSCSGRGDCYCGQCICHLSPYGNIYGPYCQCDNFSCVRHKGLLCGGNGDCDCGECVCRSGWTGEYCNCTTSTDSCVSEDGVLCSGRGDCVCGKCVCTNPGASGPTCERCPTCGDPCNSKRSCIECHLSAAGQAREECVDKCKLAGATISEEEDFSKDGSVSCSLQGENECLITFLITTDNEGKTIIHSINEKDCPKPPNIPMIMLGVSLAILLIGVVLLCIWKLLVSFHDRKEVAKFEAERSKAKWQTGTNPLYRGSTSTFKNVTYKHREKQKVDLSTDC
UniProt P05106, 27-788 limits assumed: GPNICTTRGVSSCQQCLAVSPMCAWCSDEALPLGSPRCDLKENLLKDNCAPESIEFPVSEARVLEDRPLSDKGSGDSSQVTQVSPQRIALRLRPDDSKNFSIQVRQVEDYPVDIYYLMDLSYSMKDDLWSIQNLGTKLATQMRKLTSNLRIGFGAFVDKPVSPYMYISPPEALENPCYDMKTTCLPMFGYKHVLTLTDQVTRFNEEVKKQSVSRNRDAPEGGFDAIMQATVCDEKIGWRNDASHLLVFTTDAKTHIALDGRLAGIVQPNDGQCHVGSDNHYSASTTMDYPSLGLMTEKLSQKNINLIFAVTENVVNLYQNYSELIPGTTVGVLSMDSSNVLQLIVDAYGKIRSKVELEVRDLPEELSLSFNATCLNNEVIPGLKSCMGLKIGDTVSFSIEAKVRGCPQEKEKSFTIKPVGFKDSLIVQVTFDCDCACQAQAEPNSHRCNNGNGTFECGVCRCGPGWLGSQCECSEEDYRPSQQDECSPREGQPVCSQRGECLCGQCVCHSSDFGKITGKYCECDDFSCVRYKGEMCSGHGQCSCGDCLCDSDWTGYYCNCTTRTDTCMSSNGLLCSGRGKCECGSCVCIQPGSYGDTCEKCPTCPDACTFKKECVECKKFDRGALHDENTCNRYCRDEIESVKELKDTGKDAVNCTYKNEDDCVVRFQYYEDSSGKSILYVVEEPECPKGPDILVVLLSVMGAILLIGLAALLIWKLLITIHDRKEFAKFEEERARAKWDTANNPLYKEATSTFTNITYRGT
UniProt P18084, 24-799 limits assumed: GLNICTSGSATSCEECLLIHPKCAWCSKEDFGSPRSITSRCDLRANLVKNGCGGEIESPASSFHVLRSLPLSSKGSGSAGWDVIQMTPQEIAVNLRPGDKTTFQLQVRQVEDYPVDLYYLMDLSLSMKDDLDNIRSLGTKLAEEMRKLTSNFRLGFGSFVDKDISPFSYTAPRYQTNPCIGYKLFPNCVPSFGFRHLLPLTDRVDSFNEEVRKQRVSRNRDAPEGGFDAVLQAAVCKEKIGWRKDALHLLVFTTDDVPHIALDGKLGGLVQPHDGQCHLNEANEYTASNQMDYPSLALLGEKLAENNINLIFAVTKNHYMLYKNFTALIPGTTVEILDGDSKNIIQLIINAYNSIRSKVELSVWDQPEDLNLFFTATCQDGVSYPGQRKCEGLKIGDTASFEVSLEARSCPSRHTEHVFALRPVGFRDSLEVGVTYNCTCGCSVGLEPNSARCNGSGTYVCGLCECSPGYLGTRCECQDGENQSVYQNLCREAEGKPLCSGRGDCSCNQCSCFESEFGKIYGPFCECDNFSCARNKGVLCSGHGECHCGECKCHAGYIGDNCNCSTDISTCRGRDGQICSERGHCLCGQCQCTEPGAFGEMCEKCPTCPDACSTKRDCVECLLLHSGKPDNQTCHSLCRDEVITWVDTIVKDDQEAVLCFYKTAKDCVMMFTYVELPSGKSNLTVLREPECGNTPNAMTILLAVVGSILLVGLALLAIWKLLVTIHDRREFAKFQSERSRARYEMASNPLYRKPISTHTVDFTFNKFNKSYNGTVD

Legend:
[1] = biological target: αvβ6 integrin (Homo sapiens, UniProt P06756+P18564); test: IC50 binding activity (Examples 3 and 12); settings: for IC50: read-out: IC50 (nM) αvβ6; for selective binding to αvβ6 integrin: Example 3, versus αvβ3 and αvβ5
From the text: (§1) As reported in the following Table 1, IC50 binding data was obtained for the αvβ6 integrin ligands of Structures 1 and 2:
(§2) Azide-functionalized structures (i.e., Structures 1b and 2b) were examined for IC50 under conditions typically used and known in the art.
As reported in the following Table 17, additional IC50 binding data was obtained for the αvβ6 integrin ligands of Structures 2, 6.1, 7, and 23 used in certain Examples herein:
Azide-functionalized structures (i.e., Structures 2b and 6.1b, 7b, and 23b) were examined for IC50 under conditions typically used and known in the art.

[2] = biological target: αvβ3 (Homo sapiens, UniProt P05106+P06756); test: IC50 binding activity (Example 3); settings: Example 3, Table 1; azide-functionalized structures (1b, 2b) examined
From the text: as §1, §2

[3] = biological target: αvβ5 (Homo sapiens, UniProt P06756+P18084); test: IC50 binding activity (Example 3); settings: Example 3, Table 1; azide-functionalized structures (1b, 2b) examined
From the text: as §1, §2

[4] = Example 12, Table 17, azide-functionalized structures (2b, 6.1b, 7b, 23b) examined
[5] = Example 3, Table 1, azide-functionalized structures (1b, 2b) examined

IC50 [1, 4] [nM]	IC50 (nM) αvβ3 [2]	IC50 (nM) αvβ5 [3]	selective binding to αvβ6 integrin [1]	IC50 [1, 5] [nM]	Structure (SMILES)
760	–	–	–	–	Cc1ccnc(NCCCC(=O)N[C@H](C(=O)N[C@@H](CC(=O)O)c2ccc(-c3ccc(OCCOCCOCCOCCOCCN=[N+]=[N-])c4ccccc34)cc2)C(C)C)c1
205	not active	not active	selective binding	129	Cc1ccnc(NCCCC(=O)N[C@@H](COCCOCCOCCOCCN=[N+]=[N-])C(=O)N[C@@H](CC(=O)O)c2ccc(-c3cccc4ccccc34)cc2)c1
–	not active	not active	selective binding	13	Cc1ccnc(NCCCCC(=O)N[C@@H](COCCOCCOCCOCCN=[N+]=[N-])C(=O)N[C@@H](CC(=O)O)c2ccc(-c3cccc4ccccc34)cc2)c1
382	–	–	–	–	Cc1ccnc(NCCCC(=O)NCC(=O)N[C@H](CC(=O)O)c2ccc(-c3ccc(OCCOCCOCCN=[N+]=[N-])c4ccccc34)cc2)c1
